# Yeast mating assay 1: variants of the scFv Ab-14

Source: Engelhart et al. 2022 (doi:10.1038/s41597-022-01779-4), MIT Lincoln Laboratory and A-Alpha Bio; data file from the FLAb repository.

Target: peptide PDVDLGDISGINAS, taken from heptad repeat 2 (HR2) of SARS-CoV-2 spike.

Parent: Ab-14, a human scFv built as VH, the linker GGGGSGGGGSGGGGS, VL. Only the CDRs of the light chain vary.
VH: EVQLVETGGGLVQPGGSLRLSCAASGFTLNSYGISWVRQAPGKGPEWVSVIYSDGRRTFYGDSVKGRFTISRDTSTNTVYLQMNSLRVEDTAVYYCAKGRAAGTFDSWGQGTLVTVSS
VL: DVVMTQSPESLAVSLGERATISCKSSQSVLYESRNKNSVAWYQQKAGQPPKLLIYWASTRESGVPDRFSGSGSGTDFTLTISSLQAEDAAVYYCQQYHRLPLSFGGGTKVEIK

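The parent was found by panning a naive human phage display library on the peptide. AAYL50 was designed without a model: most single CDR substitutions and a random sample of double and triple ones. The assay is AlphaSeq: two haploid yeast populations carry antibody and antigen on their surface. After mating in shaken culture at 30 °C for 16 h, diploids were selected and their barcode pairs sequenced. A regression on co-assayed BCL2-family reference pairs converts the normalised counts of each replicate to an apparent Kd. There are three technical replicates.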

Each variant is given by its three light chain CDRs, as the data file delimits them; those of the parent are KSSQSVLYESRNKNSVA, WASTRES, QQYHRLPLS. Numbers give log10(Kd / nM), so 0 is 1 nM and 3 is 1 µM. Smaller is tighter. A mean of the replicates is given; it leaves out those without a signal. "ND" means that the variant was in the library but no mating with the target was seen in that replicate; the authors take this as a sign of poor binding, and no number exists. Background: pairings of library AAYL50 with three empty control strains gave a value in 18% of cases (median 4.19, 5th percentile 2.99). Values in that range, when seen in few replicates, are hard to tell from nonspecific mating. Also given: how often the same scFv was detected with the empty control strains, with their mean in brackets.

CDR-L1 | CDR-L2 | CDR-L3 | log10 Kd, replicates | mean, log10 nM | empty controls
WSSQSVLYESRNKNSVA | WASARES | QQYHRLPHS | ND ND ND | ND | 0 of 9
KSSQSVLYESMNKNSVA | WASTRES | QQYHQLPLS | 0.43 0.58 0.53 | 0.51 | 1 of 9 (3.68)
KSSQSVLYESRNANSVA | WRSTRES | QNYHRLPLS | ND 3.33 5.98 | 4.66 | 4 of 9 (4.32)
KSSQSVQYESRNKNSVA | WASTRES | TQTHRLPLS | 1.47 1.68 1.82 | 1.66 | 3 of 9 (3.44)
KSSQSVLYESRNKNSVA | WASTRES | QQWHRLGPS | ND ND ND | ND | 1 of 9 (4.15)
KSSQSVLYASRNKNSVA | WWSTRES | QQYHQLPLS | ND ND ND | ND | 0 of 9
KSSQSHLYESINKNSVA | WASTRES | QQYHWLPLS | 2.13 ND 2.49 | 2.31 | 0 of 9
KSSHSVKYESRAKNSVA | WASTRES | QQYHRLPLS | ND ND ND | ND | 0 of 9
YSSQSVLYESRNKNSVA | WASTRES | SQCHRLPLS | ND 3.65 ND | 3.65 | 1 of 9 (4.62)
KSSQSVLYESHNKNSVA | WASTAES | QQHHRLPLS | ND ND ND | ND | 0 of 9
KSSQSVLYESRNKNFVA | WASTRES | QQYHRLPLS | ND ND ND | ND | 0 of 9
KSSQSVLYESRNKNSVA | MASTRES | QQYQRLPLS | 0.28 0.52 0.39 | 0.39 | 2 of 9 (5.20)
KSSQSVLYESPLKNSVA | WASTRES | QQVHRLPLS | 1.52 1.82 1.82 | 1.72 | 2 of 9 (3.91)
KSSQSILYEYRNKNSVA | WASTRES | QQYHRKPLS | ND 4.89 4.64 | 4.77 | 4 of 9 (4.41)
KSSQSVLYESRNFNSVA | WAMTRDS | QQYHRLPLS | 3.05 2.87 3.87 | 3.27 | 5 of 9 (4.72)
YSSQSVLVESRNKNSVA | WASTRES | QQFHRLPLS | 1.77 2.25 1.74 | 1.92 | 2 of 9 (4.05)
KESQMVLYESRNKNSVA | WASTRES | QQYHRLPSS | 3.86 ND ND | 3.86 | 3 of 9 (4.31)
KSSQSVLYESRNKNSVA | WASTRES | RQFHCLPLS | 1.07 1.29 1.26 | 1.21 | 0 of 9
KSSQSVLYESRNTNSVA | WASTRES | QDYHRLPLN | ND ND ND | ND | 0 of 9
KSSQSALYESRNVNSVA | WASTRES | QCYHRLPLS | 0.07 0.65 0.39 | 0.37 | 0 of 9
KSSQSVLRESRNKNSVA | WASLRES | QQYHDLPLS | 0.05 0.27 0.25 | 0.19 | 2 of 9 (4.54)
KSSQSVLYESKNKNYVA | WASTREC | QQYHRLPLS | ND 2.54 2.89 | 2.72 | 2 of 9 (4.42)
KSSQSVLYESRNKNSEG | WASTRDS | QQYHRLPLS | ND ND 4.64 | 4.64 | 0 of 9
KSSFSVLYESRNKNLVA | WASTRES | QQYHRGPLS | 4.65 ND 4.67 | 4.66 | 3 of 9 (4.54)
KSSQSVCYEWRNKNSVA | WASTRDS | QQYHRLPLS | 1.75 1.91 2.78 | 2.15 | 1 of 9 (3.20)
KSSQSVLYESRNKMSVA | WASTRKS | QVYHRLPLS | ND ND ND | ND | 0 of 9
KSSQSVLYSYRNKNSVA | WASTRES | QQYHRLPLA | 2.07 2.07 2.09 | 2.08 | 5 of 9 (4.73)
KSSQSVLYPSRNKNSVA | WASTREE | QQYHRLPLS | 0.24 0.56 0.41 | 0.40 | 2 of 9 (4.98)
KSSQKVLYESRNKNSVA | PASTRES | QWYHRLPLS | 2.99 ND ND | 2.99 | 2 of 9 (3.47)
KSSQAVLYESRAKNSVA | WASTRES | QQPHRLPLS | ND ND ND | ND | 0 of 9
KSSDSVLYESRNKNGVA | WASTRHS | QQYHRLPLS | 2.92 3.47 2.90 | 3.09 | 4 of 9 (4.29)
KSSQKVLYESRNKYSVA | WASTRES | QQWHRLPLS | ND ND ND | ND | 0 of 9
KSSQSVLYESRNKNSVA | WGRTRES | NQYHRLPLS | 3.08 ND 3.00 | 3.04 | 0 of 9
KNSQSVLPESRNKNSVA | WASTRES | QQYHCLPLS | 1.79 4.21 2.63 | 2.88 | 1 of 9 (4.57)
KSSQSVLYESRNKNSVA | WASTWES | MQCHRLPLS | 4.82 4.34 ND | 4.58 | 3 of 9 (4.34)
KSSQSVLYESRNKRSVA | WASTRES | VQYHRLPGS | 5.59 ND ND | 5.59 | 1 of 9 (3.65)
KSSGEVLYESRNKNSVA | WASTRES | QQYHRSPLS | 1.29 1.50 1.41 | 1.40 | 2 of 9 (5.06)
KSSQSVLKESRNKNSVA | WASTQEP | QQYHRLPLS | 6.00 ND ND | 6.00 | 1 of 9 (5.38)
KSSQSMLYESRNKNSVA | WASTQEA | QQYHRLPLS | 3.46 2.67 3.21 | 3.11 | 3 of 9 (4.38)

Parent in this assay: reference entry 0.65, copy in this library 1.68.